# Source: PubChem (several laboratories)
# Only some compounds are listed: those with a hit (about 2.1% of all), similar ones and a draw of the others.
# ERp5 block = blocks human ERp5 reductase activity on insulin; Q15084; inhibition, % at 9.99 µM; ERp5 insulin aggregation, absorbance 650 nm, 90 min; 350,000 compounds, 0.05% hits;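 active = mean replicate inhibition above about 25%, with every replicate also reaching it, limit read from the data, passing the limit was not always enough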
# NR1D1 modulator = modulates human Rev-erb alpha binding to DNA. P20393. AID 1259318. Rev-erbα–FITC-DNA binding, fluorescence polarization, 90 min. 370,000 compounds, 0.79% hits. activity, % at 10 µM;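 active = activity above about 14%, limit read from the data; passing the limit was not always enough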;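 also: 0% = DMSO wells with 35 nM protein and 100% = DMSO wells with 750 nM protein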
# PDI inh = blocks human protein disulfide isomerase activity; AID 588391; 350,000 compounds, 0.052% hits; inhibition, % at 10 µM; PDI insulin aggregation turbidity, A650, 90 min; P07237;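 active = mean inhibition across replicates of 30% or more, whatever share of single replicates reach that level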
# INS-1E GSIS act = GLuc luminescence reporter in INS-1E cells, primary screen for activators of glucose-dependent secretion of insulin | INS-1E GLuc reporter insulin secretion, 2-3 h | activation, % at 16.6 µM | 370,000 compounds, 0.61% hits;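 active = lowest replicate activation of at least 40%, so every replicate reaches that level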;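 also: 0% = median of neutral control wells and 100% = median of IBMX positive control wells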
# Yeast UUG start-1 = alters start codon recognition fidelity in yeast | S. cerevisiae UUG-firefly luciferase reporter, luminescence/redox ratio | activity score, % at 18.7 µM | 350,000 compounds, 0.13% hits | AID 602363;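 active = replicate mean at a twofold rise or more, about +100% in these data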;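 note: firefly luciferase made from a UUG start codon reports start codon fidelity; reporter light over untreated wells divided by growth signal over untreated wells; some hits fall short of that in this replicate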
# SMARCA2 act = activators of SMARCA2 function; 370,000 compounds, 1% hits; MG213 cells, MMTV-luciferase reporter, dexamethasone, overnight; activation, % at 9.1 µM; in the data active = activation above about 7.8%;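 also: 0% = vehicle wells and 100% = reference activator wells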
# Yeast UUG start-2 = modulators of start codon recognition fidelity in yeast. shares compounds with Yeast UUG start-1. S. cerevisiae UUG-start firefly luciferase, luminescence, 4 h; 100% means double the DMSO signal. activation, % at 38 µM. 540 tested, under 10 active. AID 652061;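 active = signal increase whose fitted curve reaches an absolute level of 40 at a concentration under 10 µM; inactive = activity opposite to the expected increase, or the rest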
# * = called active by the depositor; i = inactive; nt = no result given.
# Field names: A = ERp5 block; B = NR1D1 modulator; C = PDI inh; D = INS-1E GSIS act; E = Yeast UUG start-1; F = SMARCA2 act; G = Yeast UUG start-2
C/C=C/c1ccc2c(c1)O[C@@H](CN(C)CCC)[C@@H](C)CN([C@H](C)CO)S2(=O)=O
  A: 5.6 | B: nt | C: nt | D: -3.2 | E: 85.3* | F: nt | G: i
C/C=C/c1ccc2c(c1)O[C@H](CN(C)C(=O)C1CCCCC1)[C@H](C)CN([C@H](C)CO)S2(=O)=O
  A: -0.6 | B: nt | C: nt | D: -13.8 | E: 200.9* | F: nt | G: i
CCCN(C)C[C@H]1Oc2cc(/C=C/c3ccccc3)ccc2S(=O)(=O)N([C@H](C)CO)C[C@@H]1C
  A: 6.4 | B: nt | C: nt | D: -10.2 | E: 9.8 | F: nt | G: nt
C/C=C/c1ccc2c(c1)O[C@H](CN(C)Cc1ccc(C(=O)O)cc1)[C@H](C)CN([C@H](C)CO)S2(=O)=O
  A: -2.6 | B: nt | C: nt | D: 13.2 | E: 192.1* | F: nt | G: i
C/C=C/c1ccc2c(c1)O[C@H](CN(C)Cc1ccc(C(=O)O)cc1)[C@@H](C)CN([C@H](C)CO)S2(=O)=O
  A: 8.2 | B: nt | C: nt | D: 25.3 | E: 7.1 | F: nt | G: nt
O=C(NCC[C@@H]1CC[C@@H](NC(=O)C2CCCC2)[C@H](CO)O1)Nc1ccc(Cl)cc1
  A: 5.8 | B: nt | C: nt | D: -3.8 | E: -1.8 | F: nt | G: nt
O=S(=O)(N[C@@H]1CC[C@@H](CCn2cc(-c3ccccn3)nn2)O[C@H]1CO)c1cccc(Cl)c1
  A: 1.5 | B: nt | C: nt | D: -5.9 | E: -11.4 | F: nt | G: nt
C[C@@H]1CN([C@H](C)CO)C(=O)Cc2cc(NS(=O)(=O)c3ccccc3)ccc2O[C@H]1CN(C)S(=O)(=O)c1ccc(F)cc1
  A: nt | B: nt | C: nt | D: -2.2 | E: 1.7 | F: nt | G: nt
Cn1nc(CC(=O)NC2CCCCCC2)c2ccccc2c1=O
  A: 5.0 | B: 5.5 | C: 14.3 | D: nt | E: -35.2 | F: -1.7 | G: 11.0
Cn1nc(CC(=O)NC2CCCCC2)c2ccccc2c1=O
  A: nt | B: -3.8 | C: 18.5 | D: -1.5 | E: nt | F: -4.6 | G: -4.5
Cn1nc(C(=O)NC2CCCC2)c2ccccc2c1=O
  A: -2.8 | B: -8.8 | C: 6.2 | D: 12.4 | E: -13.5 | F: -0.8 | G: nt
CCn1c(CCNC(=O)c2ccc(OC)cc2)nnc1SCC(=O)Nc1ccccc1F
  A: 3.2 | B: 4.7 | C: 10.7 | D: 6.9 | E: 315.9* | F: -4.6 | G: 1.2
CCCNC(=O)N1CC2(CN(C(=O)c3cccc(F)c3)C2)c2c([nH]c3cc(OC)ccc23)[C@H]1CO
  A: 3.5 | B: nt | C: nt | D: -17.3 | E: nt | F: nt | G: nt
C[C@@H]1CN([C@@H](C)CO)C(=O)Cc2cc(NC(=O)C3CCCCC3)ccc2O[C@H]1CN(C)C(=O)NC1CCCCC1
  A: 5.0 | B: nt | C: nt | D: -6.5 | E: 46.6* | F: nt | G: i
C[C@H](CO)N1C[C@H](C)[C@@H](CN(C)C(=O)NC2CCCCC2)Oc2ccc(NC(=O)C3CCCCC3)cc2CC1=O
  A: 1.5 | B: nt | C: nt | D: -3.2 | E: 14.8 | F: nt | G: nt

# Next part.
# Field names: A = ERp5 block; B = NR1D1 modulator; C = PDI inh; D = INS-1E GSIS act; E = Yeast UUG start-1; F = SMARCA2 act; G = Yeast UUG start-2
Cc1cc[n+](C2=C([O-])c3ccccc3C(=O)/C2=N\S(=O)(=O)c2cccs2)cc1C
  A: 1.4 | B: -0.6 | C: -70.3 | D: -8.4 | E: 446.3* | F: 1.5 | G: 0.0
Cc1cc(C)c[n+](C2=C([O-])c3ccccc3C(=O)/C2=N\S(=O)(=O)c2cccs2)c1
  A: -0.1 | B: 2.0 | C: -9.6 | D: -2.6 | E: nt | F: 2.4 | G: nt
O=C(NCCN1CCOCC1)C(=O)NCC1OCCCN1S(=O)(=O)c1cc(F)ccc1F (stereo not drawn)
  A: 1.3 | B: 0.7 | C: -3.7 | D: 10.7 | E: 172.5* | F: 1.3 | G: -1.9
COc1ccc(S(=O)(=O)N2CCN(c3ccc(F)cc3)CC2)cc1OC
  A: -1.1 | B: 7.1 | C: -9.0 | D: 18.1 | E: 4.4 | F: -0.7 | G: nt
COc1ccc(S(=O)(=O)N2CCN(CCCOc3ccc(F)cc3)CC2)cc1OC
  A: 1.2 | B: 1.3 | C: -7.2 | D: 3.1 | E: 303.0* | F: -3.4 | G: 7.3
CCC(=O)N1CC2(C1)CN(S(C)(=O)=O)[C@@H](CO)c1c2c2ccc(OC)cc2n1C
  A: -9.6 | B: nt | C: nt | D: 8.4 | E: nt | F: nt | G: nt
CC1C/C(=C/c2ccncc2)C(=O)/C(=C/c2ccncc2)C1 (stereo not drawn)
  A: -1.5 | B: 1.0 | C: -0.5 | D: -64.0 | E: 302.0* | F: -9.8 | G: -27.9
COc1ccc(C(=O)Nc2ccc3c(c2)OC[C@@H](C)NC[C@@H](C)[C@@H](OC)CN(C)C3=O)cc1
  A: -2.2 | B: nt | C: nt | D: 12.0 | E: -1.6 | F: nt | G: nt
CCN(CC)CC#CCC(O)(c1ccccc1)C1CCCC1 (stereo not drawn)
  A: 3.1 | B: 4.5 | C: 1.0 | D: 14.0 | E: -12.7 | F: 1.8 | G: nt
CCN(CC)CC#CCC(OC)(c1ccccc1)c1ccccc1
  A: 1.5 | B: 5.3 | C: -6.0 | D: nt | E: nt | F: 1.0 | G: 4.4
CCN(CC)CC#CC(O)(c1ccccc1)c1ccccc1
  A: -5.0 | B: -3.8 | C: -0.1 | D: -0.7 | E: nt | F: -0.9 | G: 15.5
C[C@H](NC(=O)C[C@@H]1CC[C@@H]2[C@H](COC[C@H](O)CN2C(=O)Nc2cc(Cl)cc(Cl)c2)O1)c1ccccc1
  A: -11.3 | B: nt | C: nt | D: -12.1 | E: -13.5 | F: nt | G: nt
O=C(NCC[C@@H]1CC[C@H](NS(=O)(=O)c2cccc(F)c2)[C@H](CO)O1)C1CCCC1
  A: -3.2 | B: nt | C: nt | D: 3.5 | E: 145.2* | F: nt | G: i
Cc1ccc(S(=O)(=O)N[C@H]2CC[C@H](CCNS(=O)(=O)Cc3ccccc3)O[C@@H]2CO)cc1
  A: -2.3 | B: nt | C: nt | D: -8.2 | E: 148.1* | F: nt | G: i
O=C(Nc1ccccc1F)N[C@H]1CC[C@H](CCNS(=O)(=O)c2ccc(F)cc2)O[C@H]1CO
  A: 2.6 | B: nt | C: nt | D: -12.9 | E: 153.5* | F: nt | G: i

# Whole records, looked up by structure. Values in the order: ERp5 block | NR1D1 modulator | PDI inh | INS-1E GSIS act | Yeast UUG start-1 | SMARCA2 act | Yeast UUG start-2
# C/C=C/c1ccc2c(c1)O[C@@H](CN(C)CCC)[C@@H](C)CN([C@H](C)CO)S2(=O)=O as listed: 5.6 | nt | nt | -3.2 | 85.3* | nt | i
# C/C=C/c1ccc2c(c1)O[C@H](CN(C)C(=O)C1CCCCC1)[C@H](C)CN([C@H](C)CO)S2(=O)=O as listed: -0.6 | nt | nt | -13.8 | 200.9* | nt | i
# CCN(CC)CC#CCC(OC)(c1ccccc1)c1ccccc1 as listed: 1.5 | 5.3 | -6.0 | nt | nt | 1.0 | 4.4

# (listing goes on)
# Field names: A = ERp5 block; B = NR1D1 modulator; C = PDI inh; D = INS-1E GSIS act; E = Yeast UUG start-1; F = SMARCA2 act; G = Yeast UUG start-2
COCCOC(=O)N1C(=O)[C@@]2(c3cc(C#Cc4ccc(OC)cc4)ccc31)[C@H](C(=O)N1CCN(c3ncccn3)CC1)[C@H]1C(=O)O[C@H](c3ccccc3)[C@H](c3ccccc3)N1[C@@H]2c1ccccc1OCCO
  A: -2.0 | B: nt | C: nt | D: nt | E: -1.9 | F: nt | G: nt
CC1Sc2ccc(C(=O)N(CCc3ccccc3)Cc3ccccc3)cc2NC1=O (stereo not drawn)
  A: 4.4 | B: -2.6 | C: 0.6 | D: -4.8 | E: 102.9* | F: 1.6 | G: 17.6
CC1Sc2ccc(C(=O)O)cc2NC1=O (stereo not drawn)
  A: nt | B: 5.0 | C: -4.4 | D: nt | E: -17.5 | F: 2.4 | G: nt
CO[C@H]1CN(C)C(=O)c2ccc(NS(C)(=O)=O)cc2OC[C@H](C)N(C(=O)C2CCC2)C[C@@H]1C
  A: -3.8 | B: nt | C: nt | D: 4.7 | E: -5.7 | F: nt | G: nt
O=C(NCC1OCCc2ccccc21)c1ccco1 (stereo not drawn)
  A: nt | B: -2.9 | C: -4.8 | D: nt | E: 322.9* | F: 0.6 | G: 2.2
COc1ccc(CCNS(=O)(=O)c2ccc3c(c2)OCCO3)cc1OC
  A: nt | B: 1.1 | C: 2.2 | D: nt | E: nt | F: -3.6 | G: -3.1
COc1ccc(CCNS(=O)(=O)c2ccc(Br)cc2)cc1
  A: 1.8 | B: -8.0 | C: 0.3 | D: 1.3 | E: -10.7 | F: 1.9 | G: nt
COc1ccc(CCNS(=O)(=O)c2cccc(S(=O)(=O)N3CCCC3)c2)cc1OC
  A: nt | B: -2.7 | C: 0.6 | D: 16.4 | E: 13.8 | F: -2.8 | G: nt
COc1ccc(S(=O)(=O)NCCc2ccccc2)cc1
  A: nt | B: -2.3 | C: -0.3 | D: 1.1 | E: 10.2 | F: 5.5 | G: -0.2
COc1ccc(CCNS(=O)(=O)c2cccc(F)c2)cc1OC
  A: nt | B: -6.0 | C: -3.4 | D: nt | E: 0.1 | F: -2.9 | G: 1.0
COc1ccc(CCNS(=O)(=O)c2cccc(C)c2)cc1OC
  A: nt | B: -0.2 | C: -2.4 | D: 89.8* | E: -7.1 | F: 0.5 | G: 8.5
C[C@@H]1CN([C@@H](C)CO)C(=O)c2cc(NS(=O)(=O)c3ccc(F)cc3)ccc2O[C@@H](C)CCCCO[C@@H]1CN(C)CC1CCCCC1
  A: 0.8 | B: nt | C: nt | D: -11.4 | E: 25.8 | F: nt | G: nt
COc1ccc(S(=O)(=O)NCCc2ccc(OC)c(OC)c2)cc1Cl
  A: nt | B: nt | C: nt | D: nt | E: nt | F: nt | G: i
